In publication PMC11003968 (Scientific Reports, 2024):

Target: Staphylococcus aureus IsdB hemophore, wild type (Staphylococcus aureus, UniProt Q2FZF0 41-613)
Assay: ELISA
Settings: both partners purified

B1: Human hemoglobin A (oxyhemoglobin) (complex)
chain 1: not shown
chain 2: not shown
Kd: 39 ± 4 nM
